Experimental data reported in patent publication US20240261333A1, “NOVEL TARGETS FOR ENHANCING ANTI-TUMOR IMMUNITY” (THE BROAD INSTITUTE, INC., priority 2021, published 2024).

How the values were obtained:
ACTA2 (human) = ACTA2 (human) (UniProt P62736); experiment: IgG control IP from lysate of cells overexpressing N-FLAG B3GNT2, then mass spectrometry
RPL29 = RPL29 (UniProt P47914); experiment: co-IP, IgG control, lysate of N-FLAG B3GNT2 cells, mass spectrometry
CEP170 = CEP170 (UniProt Q5SW79); experiment: as above
MAP1B = MAP1B (UniProt P46821); experiment: as above
PSMA1 = PSMA1 (UniProt P25786); experiment: as above
ABCF1 = ABCF1 (UniProt Q8NE71); experiment: as above
HSPA5 = HSPA5 (UniProt P11021); experiment: as above
NCL = NCL (UniProt P19338); experiment: as above
PRR4 = PRR4 (UniProt Q16378); experiment: as above
LAMB1 = LAMB1 (UniProt P07942); experiment: as above
PGK1 = PGK1 (UniProt P00558); experiment: as above
SERPINE2 = SERPINE2 (UniProt P07093); experiment: as above
SEC16A = SEC16A (UniProt O15027); experiment: as above
HSPH1 = HSPH1 (UniProt Q92598); experiment: as above
RBMX = RBMX (UniProt P38159); experiment: as above
DPM1 = DPM1 (UniProt O60762); experiment: as above
ALDOA = ALDOA (UniProt P04075); experiment: as above
HLA-A = HLA-A (UniProt P04439); experiment: as above
RPL18A = RPL18A (UniProt Q02543); experiment: as above
SMN1 = SMN1 (UniProt Q16637); experiment: as above
PPIB = PPIB (UniProt P23284); experiment: as above
RAB1B = RAB1B (UniProt Q9H0U4); experiment: as above
CSPG4 = CSPG4 (UniProt Q6UVK1); experiment: as above
MYO1D = MYO1D (UniProt O94832); experiment: as above
SLC25A3 = SLC25A3 (UniProt Q00325); experiment: as above
SLC25A10 = SLC25A10 (UniProt Q9UBX3); experiment: as above
LRPPRC = LRPPRC (UniProt P42704); experiment: as above
SRSF7 = SRSF7 (UniProt Q16629); experiment: as above
GNAS = GNAS (UniProt Q5JWF2); experiment: as above
TRIM28 = TRIM28 (UniProt Q13263); experiment: as above
RNASE1 = RNASE1 (UniProt P07998); experiment: as above
LOXL4 = LOXL4 (UniProt Q96JB6); experiment: as above
PSMA4 = PSMA4 (UniProt P25789); experiment: as above
CALM2 = CALM2 (UniProt P0DP24); experiment: as above
SLC25A1 = SLC25A1 (UniProt P53007); experiment: as above
TM9SF3 = TM9SF3 (UniProt Q9HD45); experiment: as above
TNC = TNC (UniProt P24821); experiment: as above
CNP = CNP (UniProt P09543); experiment: as above
OS9 = OS9 (UniProt Q13438); experiment: as above

For “IgG control (Millipore Sigma 12-371) (antibody)”, which co-IP mass spectrometry count (N-term IgG) (ACTA2 (human)) is on record?
Its co-IP mass spectrometry count (N-term IgG) is 77.

And the co-IP/MS count (RPL29)?
Its co-IP/MS count is 0.

What about the co-IP/MS count (CEP170) of the same substance?
Its co-IP/MS count is 0.

What about the co-IP/MS count (MAP1B) of the same substance?
The co-IP/MS count was 0.

What about the co-IP/MS count (PSMA1) of the same substance?
Its co-IP/MS count is 0.

And the co-IP/MS count (ABCF1)?
Its co-IP/MS count is 0.

What about the co-IP/MS count (HSPA5) of the same substance?
Its co-IP/MS count is 9.

What about the co-IP/MS count (NCL) of the same substance?
The co-IP/MS count was 0.

And the co-IP/MS count (PRR4)?
Its co-IP/MS count is 0.

And the co-IP/MS count (LAMB1)?
Its co-IP/MS count is 0.

And the co-IP/MS count (PGK1)?
The co-IP/MS count was 0.

What about the co-IP/MS count (SERPINE2) of the same substance?
Its co-IP/MS count is 0.

And the co-IP/MS count (SEC16A)?
The co-IP/MS count was 0.

What about the co-IP/MS count (HSPH1) of the same substance?
The co-IP/MS count was 0.

What about the co-IP/MS count (RBMX) of the same substance?
Its co-IP/MS count is 0.

What about the co-IP/MS count (DPM1) of the same substance?
Its co-IP/MS count is 0.

And the co-IP/MS count (ALDOA)?
The co-IP/MS count was 0.

What about the co-IP/MS count (HLA-A) of the same substance?
The co-IP/MS count was 0.

What about the co-IP/MS count (RPL18A) of the same substance?
The co-IP/MS count was 0.

What about the co-IP/MS count (SMN1) of the same substance?
Its co-IP/MS count is 0.

What about the co-IP/MS count (PPIB) of the same substance?
Its co-IP/MS count is 0.

What about the co-IP/MS count (RAB1B) of the same substance?
The co-IP/MS count was 0.

What about the co-IP/MS count (CSPG4) of the same substance?
Its co-IP/MS count is 0.

And the co-IP/MS count (MYO1D)?
Its co-IP/MS count is 0.

And the co-IP/MS count (SLC25A3)?
Its co-IP/MS count is 0.

What about the co-IP/MS count (SLC25A10) of the same substance?
The co-IP/MS count was 0.

And the co-IP/MS count (LRPPRC)?
Its co-IP/MS count is 0.

And the co-IP/MS count (SRSF7)?
The co-IP/MS count was 0.

What about the co-IP/MS count (GNAS) of the same substance?
Its co-IP/MS count is 0.

And the co-IP/MS count (TRIM28)?
Its co-IP/MS count is 0.

And the co-IP/MS count (RNASE1)?
Its co-IP/MS count is 0.

And the co-IP/MS count (LOXL4)?
The co-IP/MS count was 0.

What about the co-IP/MS count (PSMA4) of the same substance?
Its co-IP/MS count is 0.

What about the co-IP/MS count (CALM2) of the same substance?
Its co-IP/MS count is 0.

What about the co-IP/MS count (SLC25A1) of the same substance?
The co-IP/MS count was 0.

What about the co-IP/MS count (TM9SF3) of the same substance?
The co-IP/MS count was 0.

What about the co-IP/MS count (TNC) of the same substance?
Its co-IP/MS count is 0.

What about the co-IP/MS count (CNP) of the same substance?
The co-IP/MS count was 0.

What about the co-IP/MS count (OS9) of the same substance?
The co-IP/MS count was 0.
